{
  "source": "PubChem BioAssay AID743059",
  "about": "(The Scripps Research Institute Molecular Screening Center, 2013)",
  "target": "Nuclear hormone receptor DAF-12 (Heterodera glycines)",
  "experiment": "H. glycines DAF-12 receptor agonist potency, dose response, cell-based, luminescence, HEK293 (AID 743059);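 also: agonist potency for compounds that raise hgDAF-12 reporter luminescence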",
  "details": "HEK293 hgDAF-12 reporter, luciferase luminescence",
  "note": "The source made the active and inactive calls.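 The calls were made as follows: active = EC50 at or below 10 µM; inactive = EC50 above 10 µM.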",
  "data": [
    {"molecule": "O=P1(N(CCCl)CCCl)Nc2ccccc2N1", "values": [
      {"measurement": "EC50", "result": "inactive: > 67.5 µM"}
    ]}
  ]
}
